For orientation: Ki means a dissociation constant, usually derived from enzyme kinetics or from competition with a known ligand. Read a low Ki as higher affinity.

The chains behind the UniProt entries cited, without tags or fusion partners.
UniProt P35372, whole entry: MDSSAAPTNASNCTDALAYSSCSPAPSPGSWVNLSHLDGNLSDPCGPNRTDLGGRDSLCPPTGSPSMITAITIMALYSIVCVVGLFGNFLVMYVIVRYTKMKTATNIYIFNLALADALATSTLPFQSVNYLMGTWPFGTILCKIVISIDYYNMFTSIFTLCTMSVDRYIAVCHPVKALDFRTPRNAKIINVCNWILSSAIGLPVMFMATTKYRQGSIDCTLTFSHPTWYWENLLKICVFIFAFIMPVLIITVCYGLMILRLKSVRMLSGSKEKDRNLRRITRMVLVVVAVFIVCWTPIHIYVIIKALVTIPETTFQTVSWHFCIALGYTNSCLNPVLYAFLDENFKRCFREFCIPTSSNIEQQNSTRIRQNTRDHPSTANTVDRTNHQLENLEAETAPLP

The structures appear in SMILES notation.

The record followed here is BindingDB's records for US9315514.

This assay has as its target Mu-type opioid receptor (Homo sapiens, UniProt P35372). In words: μ-Opioid Receptor Binding Assay. The conditions noted are these: pH 7.4.

In turn, `CC(C)(C)[C@@]1(C)OC(c2ccccc2)O[C@]23CC[C@@]4(C[C@@H]21)[C@H]1Cc2ccc(O)c5c2[C@@]4(CCN1CC1CC1)[C@H]3O5` (some centres undefined) showed a Ki of 2.26 nM. The compound `CC(C)(C)[C@@]1(C)OCO[C@]23CC[C@@]4(C[C@@H]21)[C@H]1Cc2ccc(O)c5c2[C@@]4(CCN1CC1CC1)[C@H]3O5` showed a Ki of 0.45 nM. The same measure for `CCC1O[C@]23CC[C@@]4(C[C@@H]2[C@@](C)(C(C)(C)C)O1)[C@H]1Cc2ccc(O)c5c2[C@@]4(CCN1CC1CC1)[C@H]3O5` (some centres undefined): 0.35 nM; for `CCCC1O[C@]23CC[C@@]4(C[C@@H]2[C@@](C)(C(C)(C)C)O1)[C@H]1Cc2ccc(O)c5c2[C@@]4(CCN1CC1CC1)[C@H]3O5` (some centres undefined): 0.54 nM.
